Values quoted from earlier work in patent US12171782B2 (priority 2020, dated 2024).

Target: PLP of SARS-CoV-2 (Severe acute respiratory syndrome coronavirus 2, UniProt P0DTD1)
Settings: among 13 antiviral natural compounds and 78 known anti-viral drugs; cited from earlier work

SMILES: NC(=O)c1ncn([C@@H]2O[C@H](CO)[C@@H](O)[C@H]2O)n1 [ribavirin]
- binding affinity to PLP core structure: highest binding affinity
